Where two headings read alike, the source gives them in different places.
Legend:
guinea pigs = settings: intragastric daily for 10 days, 0.14-14 mg/kg
Male Balb/c mice = settings: 3 mg/kg intragastrically every 10-12 hours; 48 hours after carrageenan
[1] = system: male white nonlinear rats; assay: Carrageenan-induced rat paw edema; format: in vivo; settings: 1 hour before carrageenan, 2 hours after carrageenan
Protocol: Experiments were performed on male white nonlinear rats weighing 250-270 g.

| SMILES | Lymphocytes (male guinea pigs; 0.014 mg/kg intragastrically daily day 10-19) | Lymphocytes (male guinea pigs; 1.4 mg/kg intragastrically daily day 10-19) | Influx of inflammatory cells in the bronchoalveolar space (guinea pigs) | Leukocytes in the exudate (Male Balb/c mice) | Macrophages in the exudate (Male Balb/c mice) | Inhibition of edema growth ([1]; 0.18 mg/kg intragastrically once) [%] | Inhibition of edema growth ([1]; 1.8 mg/kg intragastrically once) [%] |
| --- | --- | --- | --- | --- | --- | --- | --- |
| O=C(NCCc1cnc[nH]1)C(=O)NCCc1cnc[nH]1 [Compound I, N,N′-bis[2-(1H-imidazol-4-yl)ethyl]oxalamide] | 88 ± 29 in 1 μl of the bronchoalveolar lavage | 71 ± 29 in 1 μl of the bronchoalveolar lavage | has reduced the influx of inflammatory cells in the bronchoalveolar space |  |  |  |  |
| O=C(NCCc1c[nH]cn1)c1cccc(C(=O)NCCc2c[nH]cn2)c1 [Compound II, N,N′-bis[2-(1H-imidazol-4-yl)ethyl]isophthalamide] |  |  |  | 1.0 ± 0.1 & × 10^9/1 | 0.5 ± 0.1 & × 10^9/1 | 34 | 34 |

Source: patent US11845740B2, “Glutaminyl cyclase inhibitors and the use thereof in treatment of various diseases” (OBSCHESTVO S OGRANICHENNOI OTVETSTVENNOSTIYU …, priority 2017, dated 2023)
